Columns and labels:
[1] = biological target: T1, Transient receptor potential cation channel subfamily A member 1 (Homo sapiens, UniProt O75762); experiment: Antagonist activity at human TRPA1 channel assessed as inhibition of cynnamaldehyde-induced response
[2] = biological target: T1, Transient receptor potential cation channel subfamily A member 1; experiment: Antagonist activity at human TRPA1 channel assessed as inhibition of URB597-induced intracellular calcium influx
[3] = biological target: T1, Transient receptor potential cation channel subfamily A member 1; experiment: Antagonist activity at human TRPA1 channel assessed as inhibition of allyl isothiocyanate-induced intracellular calcium influx
[4] = biological target: T1, Transient receptor potential cation channel subfamily A member 1; experiment: Antagonist activity at human TRPA1 channel assessed as inhibition of trinitrophenol-induced response

Cc1ccc(C(=O)NC(Sc2ccc([N+](=O)[O-])cc2)C(Cl)(Cl)Cl)cc1 (centres undefined)
IC50 [1]: 2.5 µM | IC50 [2]: 0.85 µM | IC50 [3]: 2 µM | IC50 [4]: 0.36 µM

— ChEMBL document CHEMBL1155439, “Transient receptor potential ankyrin 1 (TRPA1) channel as emerging target for novel analgesics and anti-inflammatory agents” (J Med Chem, 2010)
